Target: T1, FLuc (Photinus pyralis, UniProt P08659)
T1 construct: expressed in transfected cells; host or cells: transgenic mice with CAG-LSL-FLuc at the H11 locus, crossed to Cre driver lines
Experiment: Bioluminescence imaging of transgenic mice expressing FLuc in the brain
Format: in vivo, mouse
Conditions: FLuc expressed under Camk2a-cre control

Amino acid sequences for entries named in this document (tags omitted).
UniProt P08659, whole entry: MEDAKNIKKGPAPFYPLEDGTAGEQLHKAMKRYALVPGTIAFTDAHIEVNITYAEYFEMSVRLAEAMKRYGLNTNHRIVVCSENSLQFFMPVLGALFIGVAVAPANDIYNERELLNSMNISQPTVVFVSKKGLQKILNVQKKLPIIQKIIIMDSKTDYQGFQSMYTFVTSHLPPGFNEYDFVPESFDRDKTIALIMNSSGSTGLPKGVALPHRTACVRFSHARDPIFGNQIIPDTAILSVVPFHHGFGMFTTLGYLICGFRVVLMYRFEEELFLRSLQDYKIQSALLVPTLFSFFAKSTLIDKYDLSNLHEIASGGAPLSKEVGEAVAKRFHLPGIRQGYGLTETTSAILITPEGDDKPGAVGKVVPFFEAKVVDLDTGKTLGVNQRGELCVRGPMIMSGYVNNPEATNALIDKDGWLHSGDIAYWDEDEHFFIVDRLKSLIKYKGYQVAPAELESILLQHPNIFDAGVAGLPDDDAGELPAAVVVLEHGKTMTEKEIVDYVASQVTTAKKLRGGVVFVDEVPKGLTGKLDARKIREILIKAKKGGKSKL

brain signal distribution: expected forebrain-specific signal
Structure (SMILES): O=C(O)[C@H]1CSC(c2nc3ccc(O)cc3s2)=N1 [D-luciferin]

From article PMC10229426, “An optimized bioluminescent substrate for non-invasive imaging in the brain” (Nature Chemical Biology, 2023)
